Measured values as given in patent publication US6602852B1, “Basic peptides and pharmaceutical compositions containing same” (NST NeuroSurvival Technologies, Ltd., priority 1998, dated 2003).

Columns and labels:
apoptotic hepatocytes = conditions: intravenous, no anti-Fas antibody
Protocol: All animals were killed 2 hr after administration of antibody followed by organ removal. Heart, lung and liver were collected.
Formalin fixed paraffin-embedded tissues were sectioned (5 μm) for staining with Hematoxylin/Eosin or other techniques.
Endogenous peroxidase activity was blocked by incubation with 3% H2O2.
After washing with PBS, staining was developed with 3,3-diaminobenzidine tetrahydrochloride (DAB), and counterstained with Hematoxylin.
Liver sections from different lobes were used for detection of stained apoptotic cells compared to normal cells.
The percentage of apoptotic cells in the fields was estimated by evaluating parallel sections stained with Hematoxylin/Eosin. Analysis was performed blindly, since the pathologist performing the histological evaluation was unaware of the assignment of mice to the treatment or control group.

Substance: Myristate-KKKKKRFSFKKSFKLSGFSFKKNKKK (SEQUENCE ID NO. 2)-(biotin) [NST302]
- apoptotic cells in liver sections of control animals injected with compound alone (apoptotic hepatocytes): No evidence of apoptotic cells
- liver staining 30, 60 and 90 minutes after injection (anti-Fas treated mice): slowly declined
- time of peak of liver staining after injection (mice treated with anti-Fas antibody): 15 to 20 min
- liver staining five minutes after injection (treated and untreated with anti-Fas antibody): early distribution
